The nature of the assay: Mouse tail-flick test (analgesic activity, subcutaneous). As to conditions: subcutaneous in isotonic saline, 30 min after dosing, activity = percent of mice doubling initial reaction time.
On to `CN(C)C[C@H](Cc1ccccc1)N(C)C(=O)Cc1ccc(Cl)c(Cl)c1`, for which the “MOUSE TAIL-FLICK ED50 SUBCUTANEOUS” value is 9.09 mg/kg.

With `CN(C)C[C@H](c1ccccc1)N(C)C(=O)Cc1ccc2c(c1)CCCC2`, the “MOUSE TAIL-FLICK ED50 SUBCUTANEOUS” value turned out to be 0.412 mg/kg.

In the case of `CN(C)C[C@H](c1ccccc1)N(C)C(=O)Cc1cccc(C(F)(F)F)c1`, the “MOUSE TAIL-FLICK ED50 SUBCUTANEOUS” value is 0.187 mg/kg.

The values are drawn from US5030649A, “2-aminoethylamine derivatives, compositions of the same and use of said compounds in medicine” (dated 1991).
